## Yeast mating assay 2: variants of the scFv Ab-95

From the AlphaSeq antibody data of Engelhart et al. 2022 (doi:10.1038/s41597-022-01779-4), copy in the FLAb collection.

Binding partner: SARS-CoV-2 spike HR2 peptide, sequence PDVDLGDISGINAS.

Ab-95 is the parent antibody, in scFv form: VH, then a (GGGGS)3 linker, then VL. The heavy chain is unchanged in all variants.
VH: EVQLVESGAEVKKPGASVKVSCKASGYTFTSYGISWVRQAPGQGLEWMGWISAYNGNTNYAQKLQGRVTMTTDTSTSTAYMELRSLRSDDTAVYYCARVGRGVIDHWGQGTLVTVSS
VL: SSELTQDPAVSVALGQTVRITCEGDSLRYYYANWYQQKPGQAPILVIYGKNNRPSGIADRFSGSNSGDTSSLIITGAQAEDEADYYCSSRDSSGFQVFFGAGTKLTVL

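The library (AAYL52) carries one to three amino acid substitutions per variant, with no insertions or deletions. In AlphaSeq, yeast of one mating type display the scFv and yeast of the other type display the target. After mating in shaken culture at 30 °C for 16 h, diploids were selected and their barcode pairs sequenced. The ratio of observed to expected reads was calibrated, replicate by replicate, on BCL2-family standards whose Kd was known from biolayer interferometry. There are three technical replicates.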

Changes read parent residue, position, new residue, counted from the first residue of the VL shown.
Affinities are written as log10 Kd with Kd in nM; a lower number is a better binder.
Replicates are averaged; those with no signal do not enter the mean.
A pair that was not seen in any replicate is written "not detected"; this usually means weak binding, but a binder can also be missed.
Three control strains display no target. For library AAYL52, 28% of the pairings with them gave a signal, with a median of 3.91 and one signal in twenty below 2.90, so weak values seen in few replicates may be background.

changes,"mean, log10 nM",detected
L27W K50Q G94C,5.02,1 of 3
L27V N52C F98L,4.37,2 of 3
G49F S88I S92K,4.12,1 of 3
E23Q S89E F95S,1.56,3 of 3
E23N S92A V97N,2.13,3 of 3
S89D G94W,3.04,3 of 3
Y31P S88Q V97I,3.60,2 of 3
Y29P K50R V97Q,2.72,1 of 3
A32D S92E,not detected,0 of 3
R28F N51P P54C,3.53,2 of 3
D25L R28P R53N,4.00,1 of 3
E23C R28G N52Q,2.39,3 of 3
S89N S92G G94A,2.81,1 of 3
K50R F95Y F98A,2.56,3 of 3
N52H F95Y Q96W,2.93,2 of 3
E23S Y29A G49M,2.97,3 of 3
E23F Y30I Y31H,2.79,3 of 3
L27W R53F V97M,5.32,1 of 3
S89I S93R F98C,1.91,3 of 3
S26R K50M F98L,5.63,1 of 3
N33W N52A S55I,2.89,3 of 3
N33Y R90A D91N,3.42,1 of 3
Y29P R90F F95K,2.09,3 of 3
S55F S88F Q96M,3.66,2 of 3
S92C S93M,2.59,3 of 3
Y31M N51K N52G,3.21,3 of 3
Y29I F95V V97A,5.21,1 of 3
L27E N33Y K50T,not detected,0 of 3
S88Y S89N R90C,3.74,3 of 3
Y29T N33R N51L,3.10,3 of 3
Y31D P54K F98T,3.04,3 of 3
Y31H G49E,1.78,3 of 3
Y31K G49T P54N,2.03,3 of 3
L27V N52F S88F,4.15,1 of 3
G24K N33F R90V,not detected,0 of 3
N51F D91N Q96L,4.13,1 of 3
L27G R53S R90W,4.71,1 of 3
G49T K50G N51L,3.71,3 of 3
R28T S88V S93G,3.07,2 of 3
Y29S K50P Q96R,2.07,3 of 3
R28P N52P V97A,3.78,1 of 3
S26L R90N F95R,not detected,0 of 3
S26I L27V G94E,4.33,2 of 3
G24L N52Y V97K,3.48,1 of 3
N51G V97K F98H,3.26,2 of 3
K50C S55P S89M,3.82,1 of 3
K50R D91C F98W,2.79,3 of 3
Y30N K50E R53K,0.40,3 of 3
E23H A32T S92Q,1.09,3 of 3
G49C S88P R90N,4.52,1 of 3
A32I G49V D91T,4.01,2 of 3
A32D N52K S93D,not detected,0 of 3
P54K S93T,3.26,3 of 3
G24I Y29L D91A,3.61,3 of 3
G24W D25C V97S,4.53,2 of 3
G24E L27E D91N,4.49,2 of 3
D25R R28T Q96C,not detected,0 of 3
N51I R90D V97A,not detected,0 of 3
R28S N52E R90C,not detected,0 of 3
E23L S26F F95R,3.55,3 of 3
E23G D25E P54W,2.82,3 of 3
L27N P54I D91I,3.96,1 of 3
S92H S93F V97M,2.14,3 of 3
S88V F95W Q96I,2.48,3 of 3
N52H S92G S93H,2.85,3 of 3
N33T V97W,3.23,1 of 3
G24K S89R R90Y,not detected,0 of 3
N51C S88R S89T,not detected,0 of 3
S26T F95A F98R,not detected,0 of 3
S55H S93K,2.64,3 of 3
A32K N33Q G94K,3.91,2 of 3
A32I N52A V97K,4.39,2 of 3
G49A K50N N52I,2.82,3 of 3
S26T R28F,3.52,2 of 3
R28G S89D F95Y,3.33,3 of 3
N51M P54E Q96D,4.51,1 of 3
N51E R90H,3.58,3 of 3
E23H R28W S92F,not detected,0 of 3

Picked from the list: the 11 lowest averages where every replicate gave a value.

{"changes": "Y30N K50E R53K", "mean, log10 nM": "0.40", "detected": "3 of 3"}
{"changes": "E23H A32T S92Q", "mean, log10 nM": "1.09", "detected": "3 of 3"}
{"changes": "E23Q S89E F95S", "mean, log10 nM": "1.56", "detected": "3 of 3"}
{"changes": "Y31H G49E", "mean, log10 nM": "1.78", "detected": "3 of 3"}
{"changes": "S89I S93R F98C", "mean, log10 nM": "1.91", "detected": "3 of 3"}
{"changes": "Y31K G49T P54N", "mean, log10 nM": "2.03", "detected": "3 of 3"}
{"changes": "Y29S K50P Q96R", "mean, log10 nM": "2.07", "detected": "3 of 3"}
{"changes": "Y29P R90F F95K", "mean, log10 nM": "2.09", "detected": "3 of 3"}
{"changes": "E23N S92A V97N", "mean, log10 nM": "2.13", "detected": "3 of 3"}
{"changes": "S92H S93F V97M", "mean, log10 nM": "2.14", "detected": "3 of 3"}
{"changes": "E23C R28G N52Q", "mean, log10 nM": "2.39", "detected": "3 of 3"}

In this assay the parent's reference entry averaged 2.31; its copy inside this library read 2.25.